## Binding of CDR-mutated scFvs to a peptide of the spike HR2 region

Source: Engelhart et al. 2022 (doi:10.1038/s41597-022-01779-4), MIT Lincoln Laboratory and A-Alpha Bio; data file from the FLAb repository.

Target: peptide PDVDLGDISGINAS, taken from heptad repeat 2 (HR2) of SARS-CoV-2 spike.

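The starting antibody came from a phage panning campaign against this peptide. Variants in AAYL52 differ from the parent at up to three CDR positions; double and triple changes were sampled at random. In AlphaSeq, yeast of one mating type display the scFv and yeast of the other type display the target. Pairs that bind mate more often; barcode pairs of the diploids are counted by sequencing. Each replicate has its own calibration line, from reference interactions of the BCL2 family. There are three technical replicates.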

Ab-95 is the parent antibody, in scFv form: VH, then a (GGGGS)3 linker, then VL. The heavy chain is unchanged in all variants.
VH: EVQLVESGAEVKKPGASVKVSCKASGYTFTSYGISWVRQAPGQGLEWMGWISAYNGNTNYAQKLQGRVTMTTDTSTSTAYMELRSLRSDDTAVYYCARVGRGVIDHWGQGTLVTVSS
VL: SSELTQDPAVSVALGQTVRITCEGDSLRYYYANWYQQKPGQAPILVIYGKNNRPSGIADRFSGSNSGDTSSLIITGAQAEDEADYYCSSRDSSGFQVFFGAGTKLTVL

Substitutions are numbered in sequence along the VL above, starting at 1 (not Kabat).
Affinities are written as log10 Kd with Kd in nM; a lower number is a better binder.
The mean shown is taken over the replicates in which the pair was detected.
An entry "nd" has no value in the source: the pair was not observed among the diploids in that replicate. This suggests poor binding but is not conclusive.
Nonspecific signal, from three strains lacking the peptide, appeared in 28% of pairings of library AAYL52, centred on 3.91 (5% of these signals below 2.90); values are not corrected for it. The control count says in how many pairings with the empty strains this scFv gave a signal, with their mean in brackets.

changes | log10 Kd (nM) by replicate | mean, log10 nM | signal with controls
Y30N/A32R/N52R | nd nd nd | nd | 2 of 9 (3.51)
Y29L/A32R/S55D | nd 3.39 nd | 3.39 | 5 of 9 (3.91)
A32N/D91Q/Q96H | 5.09 nd nd | 5.09 | 3 of 9 (3.31)
E23I/P54G/D91F | 2.47 2.79 3.46 | 2.90 | 2 of 9 (3.53)
E23Q/F95T | nd 2.62 1.29 | 1.96 | 0 of 9
S26P/Y31V/F95Q | 3.24 3.40 nd | 3.32 | 2 of 9 (3.31)
E23T/L27W/Y29D | 3.42 2.86 2.69 | 2.99 | 3 of 9 (3.38)
E23I/Y30K | 1.57 1.31 1.10 | 1.32 | 5 of 9 (4.50)
N52Q/S55G/S89F | 2.66 2.46 2.21 | 2.44 | 5 of 9 (3.74)
Y30P/A32Q/N51E | 3.21 2.65 2.37 | 2.74 | 2 of 9 (4.09)
G24K/G49K/F95R | 3.45 5.56 4.76 | 4.59 | 3 of 9 (4.83)
Y29I/Y31F/K50W | nd 5.66 nd | 5.66 | 5 of 9 (4.00)
D91H/F98I | 3.52 3.05 2.89 | 3.15 | 3 of 9 (4.36)
Y29C/N33Y/S93V | 4.54 5.97 3.93 | 4.81 | 3 of 9 (4.29)
D25M/L27E/G49S | 3.19 nd nd | 3.19 | 0 of 9
Y31W/S93R/V97M | 2.75 3.40 2.54 | 2.90 | 3 of 9 (3.96)
E23P/K50T/V97G | 5.59 nd 3.95 | 4.77 | 2 of 9 (4.36)
E23M/N51G/R90N | 1.86 2.26 2.09 | 2.07 | 3 of 9 (4.21)
Y31H/A32N/G94A | 3.05 2.33 2.94 | 2.77 | 3 of 9 (3.34)
S26Q/S92I/G94H | nd nd nd | nd | 0 of 9
N51K/G94P/V97M | 3.91 3.05 3.21 | 3.39 | 0 of 9
R28D/N52R/S88H | 5.76 nd 4.66 | 5.21 | 3 of 9 (3.99)
S93D/G94W/Q96C | 3.25 3.04 4.01 | 3.43 | 3 of 9 (3.90)
E23S/L27K/S93I | 4.23 5.80 3.27 | 4.44 | 1 of 9 (3.94)
E23N/K50S/S88W | 2.98 2.71 2.59 | 2.76 | 6 of 9 (3.66)
G24S/N33V/F98K | nd nd nd | nd | 1 of 9 (5.31)
G49D/V97E | nd nd nd | nd | 0 of 9
S26R/R90G/V97C | nd nd nd | nd | 2 of 9 (3.15)
Y29R | 3.06 3.14 3.01 | 3.07 | 4 of 9 (4.80)
N33S/S93K | nd nd nd | nd | 5 of 9 (3.70)
D25M/L27N/Y30V | 3.03 2.54 nd | 2.79 | 2 of 9 (4.26)
S26K/L27K/F98T | nd 4.05 nd | 4.05 | 1 of 9 (3.15)
K50D/S92M/S93T | 1.79 1.73 1.64 | 1.72 | 3 of 9 (3.42)
E23K/R90H/V97Y | 3.28 4.10 2.00 | 3.13 | 2 of 9 (4.29)
R28S/Y31N/G49K | 3.58 4.38 nd | 3.98 | 4 of 9 (4.00)
G94L/Q96M/V97G | 4.28 nd nd | 4.28 | 1 of 9 (2.84)
E23G/R90A/V97N | nd nd nd | nd | 3 of 9 (3.68)
N33I | nd nd nd | nd | 6 of 9 (4.34)
R53T/S89Q/Q96I | 5.20 nd 4.98 | 5.09 | 4 of 9 (4.49)
K50F/N52W/S55Q | 4.14 nd 4.64 | 4.39 | 8 of 9 (4.25)
D25V/K50V/R53P | 4.03 5.86 nd | 4.94 | 3 of 9 (4.15)
R28A/N33K/R53I | 4.69 4.09 nd | 4.39 | 6 of 9 (4.32)
Y31L/G49D/S93F | 3.61 nd nd | 3.61 | 2 of 9 (3.25)
R28E/N51W/F95G | 4.23 nd 4.63 | 4.43 | 5 of 9 (4.22)
Y31F/P54N/S89K | nd 4.02 3.44 | 3.73 | 1 of 9 (2.58)
E23N/K50C/S88R | 3.63 2.84 3.49 | 3.32 | 5 of 9 (3.92)
G24N/K50A/R90N | nd nd nd | nd | 3 of 9 (3.53)

Repeated from above, the 2 best binders with a signal in all replicates:

| changes | log10 Kd (nM) by replicate | mean, log10 nM | signal with controls |
|---|---|---|---|
| E23I/Y30K | 1.57 1.31 1.10 | 1.32 | 5 of 9 (4.50) |
| K50D/S92M/S93T | 1.79 1.73 1.64 | 1.72 | 3 of 9 (3.42) |